Sequences of proteins named here, by UniProt entry; tags and fusion partners are left off. A change or cut given only in a name is not applied to a line headed by its entry.
UniProt Q99572: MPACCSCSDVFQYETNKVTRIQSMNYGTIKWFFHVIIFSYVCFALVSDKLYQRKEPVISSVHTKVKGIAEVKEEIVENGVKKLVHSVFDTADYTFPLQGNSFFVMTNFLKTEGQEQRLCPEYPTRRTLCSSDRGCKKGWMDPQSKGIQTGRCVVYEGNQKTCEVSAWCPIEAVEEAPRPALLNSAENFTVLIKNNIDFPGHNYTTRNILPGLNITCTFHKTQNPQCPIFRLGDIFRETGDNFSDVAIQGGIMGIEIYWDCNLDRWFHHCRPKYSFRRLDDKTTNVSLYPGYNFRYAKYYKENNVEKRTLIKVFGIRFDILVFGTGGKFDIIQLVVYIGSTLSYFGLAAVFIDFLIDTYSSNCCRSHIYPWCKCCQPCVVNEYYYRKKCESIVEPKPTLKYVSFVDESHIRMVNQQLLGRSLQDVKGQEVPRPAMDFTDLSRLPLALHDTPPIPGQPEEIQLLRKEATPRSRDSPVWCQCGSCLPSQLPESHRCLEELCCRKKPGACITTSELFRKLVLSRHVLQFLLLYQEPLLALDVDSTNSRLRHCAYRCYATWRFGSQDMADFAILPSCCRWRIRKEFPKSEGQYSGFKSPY

According to BindingDB's records for patent US10703749 (Janssen Pharmaceutica, 2020):

Assays:
[1] = biological target: P2X purinoceptor 7 (Homo sapiens, UniProt Q99572); test: Radioligand Binding
[2] = biological target: T1, P2X purinoceptor 7 (Rattus norvegicus, UniProt Q64663); test: Radioligand Binding
T1 sequence (Q64663 whole entry): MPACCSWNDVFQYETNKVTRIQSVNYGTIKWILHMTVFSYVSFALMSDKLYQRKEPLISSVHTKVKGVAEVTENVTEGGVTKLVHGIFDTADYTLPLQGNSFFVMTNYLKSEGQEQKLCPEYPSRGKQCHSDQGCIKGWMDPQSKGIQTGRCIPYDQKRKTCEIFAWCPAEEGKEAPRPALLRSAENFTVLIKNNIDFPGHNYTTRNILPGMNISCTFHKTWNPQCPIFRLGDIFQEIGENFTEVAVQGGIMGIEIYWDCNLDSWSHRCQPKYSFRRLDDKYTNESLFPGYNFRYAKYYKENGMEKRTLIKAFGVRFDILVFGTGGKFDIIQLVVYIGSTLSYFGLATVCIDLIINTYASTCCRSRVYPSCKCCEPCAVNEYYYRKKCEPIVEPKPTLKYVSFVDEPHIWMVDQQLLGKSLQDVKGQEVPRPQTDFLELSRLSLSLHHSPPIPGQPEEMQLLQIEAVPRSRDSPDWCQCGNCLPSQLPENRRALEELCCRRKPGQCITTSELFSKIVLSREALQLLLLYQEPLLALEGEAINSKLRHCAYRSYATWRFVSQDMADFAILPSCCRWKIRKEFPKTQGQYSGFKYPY

SMILES: C[C@H]1CC2=C(CN1C(=O)c1cccc(C(F)(F)F)c1)NNN2c1ncc(F)cn1 [US10703749, Example 304]
- IC50 [1]: 113 nM
- Ki [1]: 22.4 nM
- IC50 [2]: 5.65 µM
